Yeast mating assay 1: variants of the scFv Ab-14

Data: MIT Lincoln Laboratory AlphaSeq set, Engelhart et al. 2022, doi:10.1038/s41597-022-01779-4, as distributed in FLAb.

The target is the same throughout: PDVDLGDISGINAS, from the HR2 region of SARS-CoV-2 spike.

Parent scFv Ab-14: VH joined to VL by the linker GGGGSGGGGSGGGGS. Changes lie in the heavy chain CDRs alone.
VH: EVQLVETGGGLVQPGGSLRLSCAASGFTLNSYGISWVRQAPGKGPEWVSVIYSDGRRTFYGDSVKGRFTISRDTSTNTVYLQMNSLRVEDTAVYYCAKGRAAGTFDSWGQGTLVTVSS
VL: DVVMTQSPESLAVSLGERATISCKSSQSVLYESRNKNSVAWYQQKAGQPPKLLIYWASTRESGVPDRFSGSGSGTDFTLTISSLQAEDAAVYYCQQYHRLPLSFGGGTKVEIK

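Phage display of a naive human antibody library on the peptide gave the parent. In library AAYL49, one, two or three CDR residues were substituted; doubles and triples were drawn at random. The assay is AlphaSeq: two haploid yeast populations carry antibody and antigen on their surface. After mating in shaken culture at 30 °C for 16 h, diploids were selected and their barcode pairs sequenced. Scores were corrected for input abundance and mapped to Kd with protein pairs of known affinity run in the same pool. Mating was done three times.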

Variants are written as CDR1, CDR2 and CDR3 of the heavy chain (limits as in the source). Parent: GFTLNSYGIS, VIYSDGRRTFYGDSVK, GRAAGTFDS.
Scale: log10 of Kd in nM, estimated from mating counts; low values are strong binders.
A mean of the replicates is given; it leaves out those without a signal.
A pair that was not seen in that replicate is written "nd"; this usually means weak binding, but a binder can also be missed.
As a blank, each scFv also met three strains without target: over library AAYL49, 15% of these pairings were detected, typically at 4.06 and seldom below 2.83.

GFTLNSYEIS / VIYSDGRRRFYGDSVK / GRYAGTFDS: nd, nd, nd.
GFTLNSYGIN / VIYSDGRRLFYGDSVK / GRAAGTIDS: nd, 3.22, nd.
GFTLNSYGIS / VIYSDGRRTFYGDSVK / GRQAGTVDS: 1.43, 1.37, 1.42 (mean 1.40).
GFTLNSYGGS / VIYSHGRRTFYGDSVK / GRSAGTFDS: nd, 3.31, nd.
GFRLKSYGIS / VIYSDGRRTFYGDSVK / GRWAGTFDS: nd, nd, nd.
GFTLNSYGIS / VIYSDVRRTFYGDSVK / SRAAGPFDS: nd, 3.54, 4.64 (mean 4.09).
GFTLNSYGIS / VIYSDGRRTFYSDSVK / ARAAGTFFS: nd, 4.68, 4.96 (mean 4.82).
GFTLNSYGYS / VIYSDGRRTFYGDSVH / GRAGGTFDS: nd, nd, nd.
ILTLNSYGIS / VIYSLGRRTFYGDSVK / GRAAGTFDS: nd, 3.19, nd.
GFTLNSYGIS / VIYSDGRRTFYGDNIK / LRAAGTFDS: nd, nd, nd.
GVTLNSYGIS / VIYSDKRRTFYGDSVK / GRAAGTFMS: nd, nd, nd.
GFTLNSYGIS / VIYSDGWRTFYGDRVK / GRAAGTFDV: 1.08, 1.28, 1.50 (mean 1.29).
QFTLNSYGPS / VIYSDGRRTFYGVSVK / GRAAGTFDS: nd, nd, nd.
GFTLNSYGIS / VIYSEGRRTFYGDSVK / GRAAGVFDC: nd, nd, nd.
GWTLNSYEIS / VIYSDGRRTFCGDSVK / GRAAGTFDS: nd, nd, nd.
GFTLNSYGIS / VIYSDGYRTFYGDSVK / GDAAGTIDS: nd, nd, nd.
GVTLNSYGIS / VIYSDVSRTFYGDSVK / GRAAGTFDS: 4.59, 3.68, 5.13 (mean 4.47).
GFTLNSYTIS / VIYEDGRRTFYGDSVK / GRAAGTSDS: 4.85, 3.58, nd (mean 4.22).
GFTLNSYMIS / VIYSDGYRTFYPDSVK / GRAAGTFDS: nd, nd, nd.

Second part, the sequence after the result:

nd, 3.16, nd: GMTLNSYGIS / VIYSYGRRTFYGDSVK / ARAAGTFDS.
nd, nd, nd: AFTLNSYGIS / VIYSDGRRTFYFDSVK / VRAAGTFDS.
1.94, 1.48, 1.42 (mean 1.61): GFTLNSYGIS / VIYSDGRRTFYVDSVS / GAAAGTFDS.
2.04, 1.67, 1.68 (mean 1.80): GFTIISYGVS / VIYSDGRRTFYGDSVK / GRAAGTFDS.
5.16, 4.31, 4.73 (mean 4.73): GWTLNSYKIS / VIYSDGRRDFYGDSVK / GRAAGTFDS.
nd, nd, nd: GFTLNSYGIS / VIASDGRRFFYGDSVK / GRAAGTFES.
nd, nd, nd: CFTLNSYGIS / VIYSDQRRTFYGDSVK / GRAAGTFTS.
nd, nd, nd: GFTLNSYGIS / VIYDDGRRTFFGDSQK / GRAAGTFDS.
nd, nd, nd: GFTLNKGGIS / VIYRDGRRTFYGDSVK / GRAAGTFDS.
nd, nd, nd: GFTLNRPWIS / VIYSDGRRTFYGDSVK / GRAAGTFDS.
nd, nd, 4.56: GFTLNSYGIS / VIVSGGRRTFYGDSVK / GRAAQTFDS.
nd, nd, nd: GFTLVSYGIS / VIYSDGRRTFYGDSVK / GRMAGEFDS.
nd, nd, nd: GFTLNSYGIS / VIYSTLRRTFYGDSVK / GRMAGTFDS.
nd, nd, nd: GRALNSYDIS / VIYSDGRRTFYGDSVK / GRAAGTFDS.
nd, nd, nd: GFTLNSYGIS / VIGSNGRRTFYGDSVK / GRAAGTFDS.
nd, nd, nd: GFTLNHYGIS / VIYDDQRRTFYGDSVK / GRAAGTFDS.
nd, nd, nd: GFDLNSYLIS / VIYSDGRGTFYGDSVK / GRAAGTFDS.
nd, nd, nd: GFTLLSYGIS / VIPSDGRRTFYYDSVK / GRAAGTFDS.
nd, nd, nd: GFTLNSAGIL / VIYSDARRTFYGDSVK / GRAAGTFDS.
nd, nd, nd: GFTLNSYGIS / VIYSDGRHTFYCDSDK / GRAAGTFDS.

Picked from the list: the 6 lowest averages where every replicate gave a value.

{"CDR-H1": "GFTLNSYGIS", "CDR-H2": "VIYSDGWRTFYGDRVK", "CDR-H3": "GRAAGTFDV", "log10 Kd, replicates": "1.08, 1.28, 1.50", "mean, log10 nM": "1.29"}
{"CDR-H1": "GFTLNSYGIS", "CDR-H2": "VIYSDGRRTFYGDSVK", "CDR-H3": "GRQAGTVDS", "log10 Kd, replicates": "1.43, 1.37, 1.42", "mean, log10 nM": "1.40"}
{"CDR-H1": "GFTLNSYGIS", "CDR-H2": "VIYSDGRRTFYVDSVS", "CDR-H3": "GAAAGTFDS", "log10 Kd, replicates": "1.94, 1.48, 1.42", "mean, log10 nM": "1.61"}
{"CDR-H1": "GFTIISYGVS", "CDR-H2": "VIYSDGRRTFYGDSVK", "CDR-H3": "GRAAGTFDS", "log10 Kd, replicates": "2.04, 1.67, 1.68", "mean, log10 nM": "1.80"}
{"CDR-H1": "GVTLNSYGIS", "CDR-H2": "VIYSDVSRTFYGDSVK", "CDR-H3": "GRAAGTFDS", "log10 Kd, replicates": "4.59, 3.68, 5.13", "mean, log10 nM": "4.47"}
{"CDR-H1": "GWTLNSYKIS", "CDR-H2": "VIYSDGRRDFYGDSVK", "CDR-H3": "GRAAGTFDS", "log10 Kd, replicates": "5.16, 4.31, 4.73", "mean, log10 nM": "4.73"}